scFv variants of Ab-95 (light chain) against a SARS-CoV-2 spike peptide

Target peptide (SARS-CoV-2 spike, HR2 region): PDVDLGDISGINAS

Ab-95 is the parent antibody, in scFv form: VH, then three GGGGS repeats, then VL. The heavy chain is unchanged in all variants.
VH: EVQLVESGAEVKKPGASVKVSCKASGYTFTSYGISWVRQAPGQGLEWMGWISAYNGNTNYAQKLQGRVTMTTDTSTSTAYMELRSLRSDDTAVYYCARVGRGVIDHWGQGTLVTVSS
VL: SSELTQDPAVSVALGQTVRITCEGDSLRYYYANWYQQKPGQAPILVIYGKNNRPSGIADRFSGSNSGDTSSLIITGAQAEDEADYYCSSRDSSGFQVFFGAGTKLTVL

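The starting antibody came from a phage panning campaign against this peptide. Library AAYL52 holds single substitutions and randomly drawn double and triple substitutions in the CDRs. In AlphaSeq, yeast of one mating type display the scFv and yeast of the other type display the target. Mating (16 h, 30 °C) was followed by selection of diploids and sequencing of their barcodes. A regression on co-assayed BCL2-family reference pairs converts the normalised counts of each replicate to an apparent Kd. The assay was run in three technical replicates.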

Positions count from residue 1 of the parent VL; Y29W puts W in place of Y. Every variant below is changed at Y31 of the VL (sequential numbering). Values are apparent Kd, the geometric mean of the replicates that gave a signal; lower means stronger binding. An entry "nd" has no value in the source: the pair was not observed among the diploids in any replicate. This suggests poor binding but is not conclusive. In this assay the parent's reference entry averaged 200 nM; its copy inside this library read 180 nM. Three control strains display no target. For library AAYL52, 28% of the pairings with them gave a signal, with a median of 8.2 µM and one signal in twenty below 800 nM, so weak values seen in few replicates may be background.

changes	Kd	replicates with signal
Y29W+Y31E	18 nM	3 of 3
Y31C+G49D+S93V	1.2 µM	3 of 3
Y31H+S89E+S92M	1.5 µM	2 of 3
Y31M+S89Y+S92V	560 nM	3 of 3
Y31K+S88R+F98S	8.1 µM	3 of 3
D25P+Y31N+S88G	38 nM	3 of 3
S26H+Y31M+S88H	1.2 µM	3 of 3
Y31L+S88T	980 nM	3 of 3
Y31V+S89Q+Q96L	nd	0 of 3
Y31K+F98K	1.2 µM	3 of 3
R28T+Y31E+S88K	nd	0 of 3
Y31V+R53C+P54M	nd	0 of 3
Y31H+V97M+F98Y	65 nM	3 of 3
Y31D+R53W+P54K	860 nM	2 of 3
Y31M+R90Q+S92L	98 nM	3 of 3
Y29N+Y31H+S92P	18 nM	3 of 3
L27F+Y31E+R53C	1.2 µM	2 of 3
L27K+Y31M+R90G	nd	0 of 3
G24H+Y31W+V97H	4.0 µM	3 of 3
S26R+Y31F	nd	0 of 3
Y31D+G49S+S88Q	160 nM	3 of 3
Y31W+S93R+V97M	800 nM	3 of 3
Y31T+S93V	150 nM	3 of 3
G24S+Y31I+N33M	nd	0 of 3
Y30H+Y31F	18 nM	3 of 3
Y31M+D91G+S92A	230 nM	3 of 3
Y30M+Y31R+F95I	2.7 µM	3 of 3
Y29Q+Y31H+N33C	nd	0 of 3
Y29G+Y31F+N52Y	33 nM	3 of 3
Y29T+Y31N+G49S	78 nM	3 of 3
Y31T+S55P+S92W	1.7 µM	2 of 3
Y31W+G49F+S92L	3.0 µM	1 of 3
G24F+Y31E+N52D	1.4 µM	3 of 3
Y31H+D91W	470 nM	2 of 3
Y31P+R90E+F95N	51 nM	3 of 3
G24M+Y31I+S88K	16 µM	1 of 3
Y29N+Y31G+G94L	930 nM	3 of 3
Y31S+N52A+D91K	6.2 µM	2 of 3
G24K+R28V+Y31N	1.6 µM	3 of 3
Y31F+P54S+S89H	10 µM	2 of 3
D25V+S26F+Y31F	870 nM	3 of 3
Y31N+D91Y+F95L	2.6 µM	1 of 3
R28M+Y31H+Q96T	230 nM	3 of 3
S26N+Y31C+G49H	nd	0 of 3
D25T+Y31H+N52R	1.5 µM	3 of 3
Y31F+S92A+S93P	580 nM	3 of 3
Y31M+A32K+P54Y	43 µM	1 of 3
G24V+Y30T+Y31P	79 nM	3 of 3
S26K+Y31Q+S92F	4.0 µM	3 of 3
Y31K+S89P	2.6 µM	3 of 3
S26L+Y31Q+F95I	28 µM	1 of 3
E23Y+Y31M+F95C	89 µM	2 of 3
Y30A+Y31H+Q96R	17 nM	3 of 3
S26G+Y31I+S93V	3.5 µM	2 of 3
Y31G+K50D+Q96H	16 nM	3 of 3
Y31M+N51G+P54Q	340 nM	3 of 3
G24Y+Y31R+P54D	14 µM	2 of 3
G24A+Y31P+S93C	4.5 µM	2 of 3
S26D+Y31R+F98N	670 nM	3 of 3
Y31W+N33F+S93P	35 µM	2 of 3
Y31A+G94R+Q96D	nd	0 of 3
Y31P+S88L+F95A	23 nM	3 of 3
Y30D+Y31L+N52A	110 nM	3 of 3
R28H+Y31N+V97H	85 nM	3 of 3
Y31K+A32E+N33Y	9.8 µM	3 of 3
R28K+Y31T+N33E	8.1 µM	1 of 3
Y31I+K50R+S92M	720 nM	3 of 3
Y31N+S92L+S93G	1.1 µM	3 of 3

Extract of 10 entries:

changes,Kd,replicates with signal
R28H+Y31N+V97H,85 nM,3 of 3
Y31F+S92A+S93P,580 nM,3 of 3
Y31P+R90E+F95N,51 nM,3 of 3
Y31W+G49F+S92L,3.0 µM,1 of 3
Y31C+G49D+S93V,1.2 µM,3 of 3
S26R+Y31F,nd,0 of 3
Y30M+Y31R+F95I,2.7 µM,3 of 3
E23Y+Y31M+F95C,89 µM,2 of 3
G24H+Y31W+V97H,4.0 µM,3 of 3
Y31K+A32E+N33Y,9.8 µM,3 of 3

The measurements come from Engelhart et al. 2022 (doi:10.1038/s41597-022-01779-4) through the FLAb antibody collection.